Key:
Test in all cases: Ba/F3 cell viability, Cell Titer Glo
EGFR Ex19del T790M C797S = EGFR Ex19del T790M C797S (Homo sapiens, UniProt P00533, C797S/DEL746-750/T790M); conditions: read-out: IC50 Values; Ba/F3 cells expressing EGFR Ex19del T790M C797S, 72 hours
EGFR Ex19del/T790M/L792H = EGFR Ex19del/T790M/L792H (Homo sapiens, UniProt P00533, DEL746-750/L792H/T790M); conditions: read-out: IC50 Values; Ba/F3 cells expressing EGFR Ex19del/T790M/L792H, 72 hours
EGFR L858R/T790M/L718Q = EGFR L858R/T790M/L718Q (Homo sapiens, UniProt P00533, L718Q/L858R/T790M); conditions: read-out: IC50 Values; Ba/F3 cells expressing EGFR L858R/T790M/L718Q, 72 hours

Sequences of proteins named here, by UniProt entry; tags and fusion partners are left off. A line that says so, or that is headed by a name, gives the form on record, which may keep a tag or linker. Residues count along the entry.
UniProt P00533, with tags, fused parts or gaps DEL746-750/T790M/C797S: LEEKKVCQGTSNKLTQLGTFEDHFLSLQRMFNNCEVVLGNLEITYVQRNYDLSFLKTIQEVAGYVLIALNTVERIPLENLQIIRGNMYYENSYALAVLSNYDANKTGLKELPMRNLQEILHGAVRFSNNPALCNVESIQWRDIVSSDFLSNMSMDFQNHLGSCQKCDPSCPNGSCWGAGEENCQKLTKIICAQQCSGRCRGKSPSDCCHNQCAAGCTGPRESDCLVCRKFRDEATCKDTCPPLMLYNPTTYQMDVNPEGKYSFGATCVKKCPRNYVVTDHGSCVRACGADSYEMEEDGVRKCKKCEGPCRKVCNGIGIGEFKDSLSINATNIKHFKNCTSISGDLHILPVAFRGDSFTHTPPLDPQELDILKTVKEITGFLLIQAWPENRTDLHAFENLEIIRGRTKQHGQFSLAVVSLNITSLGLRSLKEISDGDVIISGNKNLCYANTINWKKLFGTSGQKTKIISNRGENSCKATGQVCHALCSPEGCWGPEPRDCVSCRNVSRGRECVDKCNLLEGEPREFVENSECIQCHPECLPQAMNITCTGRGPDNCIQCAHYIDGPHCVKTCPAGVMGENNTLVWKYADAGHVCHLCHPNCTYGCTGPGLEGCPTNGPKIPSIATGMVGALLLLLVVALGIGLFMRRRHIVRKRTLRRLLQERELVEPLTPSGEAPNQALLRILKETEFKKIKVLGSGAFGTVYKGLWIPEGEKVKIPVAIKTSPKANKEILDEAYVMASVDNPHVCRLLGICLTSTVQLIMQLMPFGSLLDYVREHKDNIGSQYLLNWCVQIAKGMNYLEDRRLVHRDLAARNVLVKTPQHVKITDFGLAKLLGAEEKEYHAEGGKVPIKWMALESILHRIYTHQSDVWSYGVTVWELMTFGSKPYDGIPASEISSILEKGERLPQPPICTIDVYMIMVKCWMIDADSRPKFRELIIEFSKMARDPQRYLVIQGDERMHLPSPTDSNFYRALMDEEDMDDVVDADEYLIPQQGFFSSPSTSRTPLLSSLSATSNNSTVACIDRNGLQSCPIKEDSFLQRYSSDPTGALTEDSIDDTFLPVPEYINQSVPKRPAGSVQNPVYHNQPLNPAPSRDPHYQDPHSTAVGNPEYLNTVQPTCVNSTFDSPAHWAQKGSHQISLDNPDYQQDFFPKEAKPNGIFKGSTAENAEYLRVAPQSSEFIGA
UniProt P00533, with tags, fused parts or gaps DEL746-750/T790M/L792H: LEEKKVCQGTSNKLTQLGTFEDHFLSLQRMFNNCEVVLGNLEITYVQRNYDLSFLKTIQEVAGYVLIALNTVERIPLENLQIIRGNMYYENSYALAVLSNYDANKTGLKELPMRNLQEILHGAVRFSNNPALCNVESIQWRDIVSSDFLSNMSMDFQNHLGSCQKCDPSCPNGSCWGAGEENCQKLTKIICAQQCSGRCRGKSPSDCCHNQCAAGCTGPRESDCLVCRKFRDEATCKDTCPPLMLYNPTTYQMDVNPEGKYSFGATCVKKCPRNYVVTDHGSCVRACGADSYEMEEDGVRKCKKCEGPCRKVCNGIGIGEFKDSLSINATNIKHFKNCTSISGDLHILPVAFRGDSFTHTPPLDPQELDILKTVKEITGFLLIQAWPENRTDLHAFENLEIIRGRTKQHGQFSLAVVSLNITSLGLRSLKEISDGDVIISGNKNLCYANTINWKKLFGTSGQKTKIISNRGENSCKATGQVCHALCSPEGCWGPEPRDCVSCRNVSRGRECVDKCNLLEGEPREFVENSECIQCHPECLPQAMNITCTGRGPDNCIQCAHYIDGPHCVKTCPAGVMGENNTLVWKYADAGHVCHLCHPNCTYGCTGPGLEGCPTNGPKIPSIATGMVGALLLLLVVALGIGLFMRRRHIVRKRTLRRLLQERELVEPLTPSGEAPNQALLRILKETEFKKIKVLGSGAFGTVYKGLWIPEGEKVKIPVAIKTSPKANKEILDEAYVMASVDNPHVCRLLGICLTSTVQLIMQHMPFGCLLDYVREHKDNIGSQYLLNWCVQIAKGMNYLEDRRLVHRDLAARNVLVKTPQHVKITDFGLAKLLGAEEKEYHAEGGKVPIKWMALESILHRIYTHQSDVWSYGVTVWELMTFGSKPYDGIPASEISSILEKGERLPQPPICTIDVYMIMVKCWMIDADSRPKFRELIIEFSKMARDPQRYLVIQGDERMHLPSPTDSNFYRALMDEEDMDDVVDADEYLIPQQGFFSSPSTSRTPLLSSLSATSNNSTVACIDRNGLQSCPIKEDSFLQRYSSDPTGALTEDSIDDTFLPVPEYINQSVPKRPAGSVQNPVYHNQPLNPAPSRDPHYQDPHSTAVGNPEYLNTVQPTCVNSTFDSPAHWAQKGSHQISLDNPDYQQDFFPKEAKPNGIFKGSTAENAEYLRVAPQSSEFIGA
UniProt P00533, 25-1210 L718Q/T790M/L858R: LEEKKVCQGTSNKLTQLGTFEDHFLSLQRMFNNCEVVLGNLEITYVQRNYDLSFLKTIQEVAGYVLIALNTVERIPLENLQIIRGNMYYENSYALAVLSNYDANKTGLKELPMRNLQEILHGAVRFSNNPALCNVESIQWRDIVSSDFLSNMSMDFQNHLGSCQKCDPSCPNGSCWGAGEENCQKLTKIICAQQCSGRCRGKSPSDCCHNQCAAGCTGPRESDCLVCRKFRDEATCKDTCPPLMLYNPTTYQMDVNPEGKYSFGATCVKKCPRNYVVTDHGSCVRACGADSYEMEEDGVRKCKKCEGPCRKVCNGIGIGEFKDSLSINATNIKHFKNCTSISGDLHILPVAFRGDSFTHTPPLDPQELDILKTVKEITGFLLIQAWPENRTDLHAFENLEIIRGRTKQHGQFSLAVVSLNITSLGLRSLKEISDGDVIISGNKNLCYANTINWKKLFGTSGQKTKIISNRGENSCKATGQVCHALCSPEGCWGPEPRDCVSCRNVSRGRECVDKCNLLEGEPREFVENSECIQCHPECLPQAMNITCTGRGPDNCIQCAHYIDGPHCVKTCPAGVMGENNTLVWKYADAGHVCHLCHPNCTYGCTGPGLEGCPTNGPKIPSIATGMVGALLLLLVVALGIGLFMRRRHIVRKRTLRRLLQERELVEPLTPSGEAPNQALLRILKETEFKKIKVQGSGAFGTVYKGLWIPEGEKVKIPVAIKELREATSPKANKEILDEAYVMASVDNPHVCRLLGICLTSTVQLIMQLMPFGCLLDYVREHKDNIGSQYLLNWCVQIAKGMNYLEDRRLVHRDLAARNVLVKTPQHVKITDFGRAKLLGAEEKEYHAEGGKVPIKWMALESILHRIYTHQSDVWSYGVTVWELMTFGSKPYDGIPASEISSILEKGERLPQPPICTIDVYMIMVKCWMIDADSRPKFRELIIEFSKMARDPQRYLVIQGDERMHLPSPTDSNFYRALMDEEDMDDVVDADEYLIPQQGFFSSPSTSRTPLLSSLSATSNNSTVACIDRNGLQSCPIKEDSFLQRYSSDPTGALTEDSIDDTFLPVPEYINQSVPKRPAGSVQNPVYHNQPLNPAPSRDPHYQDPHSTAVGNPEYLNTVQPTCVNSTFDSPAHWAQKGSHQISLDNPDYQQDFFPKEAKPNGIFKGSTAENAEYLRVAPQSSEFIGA

Cc1cc(C(=O)Nc2nc3cccc(Cl)c3n2[C@@H]2CCCCN(C(=O)/C=C/CN(C)C)C2)ccn1
IC50 (EGFR Ex19del T790M C797S): 7.21 µM
IC50 (EGFR Ex19del/T790M/L792H): 0.0374 µM
IC50 (EGFR L858R/T790M/L718Q): 1 µM
